Test results from US20080146500A1, “Selective Vpac2 Receptor Peptide Agonists” (priority 2004, published 2008).
pEC50: −log10 of the molar value.

By UniProt entry, the sequences of proteins in these tests, tags left out. Residues count along the entry.
UniProt P30083, 31-459: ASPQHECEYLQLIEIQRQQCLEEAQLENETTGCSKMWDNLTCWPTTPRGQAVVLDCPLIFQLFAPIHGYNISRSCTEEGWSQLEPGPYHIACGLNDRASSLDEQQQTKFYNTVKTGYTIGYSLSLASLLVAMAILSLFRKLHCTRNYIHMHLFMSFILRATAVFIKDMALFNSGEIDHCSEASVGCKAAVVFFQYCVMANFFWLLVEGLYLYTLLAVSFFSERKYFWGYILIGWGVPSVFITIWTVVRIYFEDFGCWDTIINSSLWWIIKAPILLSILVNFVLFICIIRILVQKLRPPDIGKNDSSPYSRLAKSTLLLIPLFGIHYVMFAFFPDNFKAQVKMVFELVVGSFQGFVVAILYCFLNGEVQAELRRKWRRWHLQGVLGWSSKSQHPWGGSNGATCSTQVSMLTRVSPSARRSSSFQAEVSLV

Tests used:
rat VPAC1 receptor = biological target: T1, rat VPAC1 receptor (Rattus norvegicus, UniProt P30083); experiment: Rat VPAC1 in vitro potency (cAMP generation, DiscoveRx) in transiently transfected CHO-PO cells; type: cell-based; conditions: CHO-PO cells transiently transfected with rat VPAC1; read-out: rVPAC1 in vitro potency (cAMP generation) EC50
T1 construct: expressed in transfected cells; host or cells: CHO-PO cells, transient
Description: (§1) Rat receptor selectivity is estimated by comparing functional potency (cAMP generation) in CHO-PO cells transiently expressing rat VPAC1 or rat VPAC2 receptors. CHO-PO cells transiently expressing rat VPAC1 or VPAC2, are seeded with 10,000 cells/well three days before the assay. The cells are kept in 200 μL culture medium. […] The stimuli are present for 30 minutes. The assay buffer is then gently removed.

rat VPAC2 receptor = biological target: T2, rat VPAC2 receptor (Rattus norvegicus, UniProt P35000); experiment: Rat VPAC2 in vitro potency (cAMP generation, DiscoveRx) in transiently transfected CHO-PO cells; type: cell-based; conditions: CHO-PO cells transiently transfected with rat VPAC2; read-out: rVPAC2 in vitro potency (cAMP generation) EC50
T2 construct: expressed in transfected cells; host or cells: CHO-PO cells, transient
T2 sequence (P35000 23-437): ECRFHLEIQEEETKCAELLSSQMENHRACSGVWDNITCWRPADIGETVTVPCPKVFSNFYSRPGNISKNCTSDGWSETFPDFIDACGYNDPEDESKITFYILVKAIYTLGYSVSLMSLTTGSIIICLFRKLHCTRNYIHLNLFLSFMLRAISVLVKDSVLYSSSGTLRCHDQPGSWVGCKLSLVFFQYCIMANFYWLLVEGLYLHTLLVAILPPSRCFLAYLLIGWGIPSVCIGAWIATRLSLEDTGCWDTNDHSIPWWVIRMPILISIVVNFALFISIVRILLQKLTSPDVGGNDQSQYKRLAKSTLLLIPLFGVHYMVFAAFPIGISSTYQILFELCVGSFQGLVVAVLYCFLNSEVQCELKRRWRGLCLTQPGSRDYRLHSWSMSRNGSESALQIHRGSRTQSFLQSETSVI
Description: as §1

HSDAYFTDNYTRLRKQMAVKKYLNSILN [VIP, reference compound]
pEC50 (rat VPAC1 receptor): 10.82
pEC50 (rat VPAC2 receptor): 9.17
